# Test results taken from BindingDB's records for doi:10.1073/pnas.90.18.8547 (U. 109, 1993).
# Amino acid sequences for entries named in this document (tags omitted).
# UniProt P32305, whole entry: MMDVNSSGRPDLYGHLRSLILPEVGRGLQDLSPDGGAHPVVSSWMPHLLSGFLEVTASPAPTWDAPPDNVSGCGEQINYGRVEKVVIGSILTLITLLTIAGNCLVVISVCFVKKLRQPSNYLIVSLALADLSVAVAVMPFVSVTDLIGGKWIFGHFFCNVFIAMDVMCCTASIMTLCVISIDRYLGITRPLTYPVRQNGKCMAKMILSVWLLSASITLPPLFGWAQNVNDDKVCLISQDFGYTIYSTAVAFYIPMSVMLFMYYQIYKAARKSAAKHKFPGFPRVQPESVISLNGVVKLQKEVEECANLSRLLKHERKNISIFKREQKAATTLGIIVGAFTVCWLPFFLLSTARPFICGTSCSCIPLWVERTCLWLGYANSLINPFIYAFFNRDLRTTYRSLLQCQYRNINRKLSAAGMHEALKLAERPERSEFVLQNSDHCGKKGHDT
# Target: 5-hydroxytryptamine receptor 7 (Rattus norvegicus, UniProt P32305)
smiles,measurement,value
"CCN(CC)C(=O)[C@@H]1C=C2c3cccc4[nH]cc(c34)C[C@H]2N(C)C1 [(4R,7R)-N,N-diethyl-6-methyl-6,11-diazatetracyclo[7.6.1.0^{2,7}.0^{12,16}]hexadeca-1(16),2,9,12,14-pentaene-4-carboxamide]",Ki,9.5 nM
